Data reported in article PMC7017074, “Krebs Cycle Intermediate-Modified Carbonate Apatite Nanoparticles Drastically Reduce Mouse Tumor Burden and Toxicity by Restricting Broad Tissue Distribution of Anticancer Drugs” (Cancers, 2020).

Assay: Animal biodistribution study (organ and tumor distribution of DOX)
Assay type: in vivo, Balb/c mice
Settings: 4T1 tumor mice, IV DOX 5 mg/kg, 24 h

- DOX in brain: 1.06 ± 0.02 ng/mg
SMILES: COc1cccc2c1C(=O)c1c(O)c3c(c(O)c1C2=O)C[C@@](O)(C(=O)CO)C[C@@H]3O[C@H]1C[C@H](N)[C@H](O)[C@H](C)O1 [Free DOX, doxorubicin]
